# Patent US11918770B2, “Implants for localized drug delivery and methods of use thereof” (The Regents of the University of California, priority 2014, dated 2024)
# The chains behind the UniProt entries cited, without tags or fusion partners.
# UniProt P03372, whole entry: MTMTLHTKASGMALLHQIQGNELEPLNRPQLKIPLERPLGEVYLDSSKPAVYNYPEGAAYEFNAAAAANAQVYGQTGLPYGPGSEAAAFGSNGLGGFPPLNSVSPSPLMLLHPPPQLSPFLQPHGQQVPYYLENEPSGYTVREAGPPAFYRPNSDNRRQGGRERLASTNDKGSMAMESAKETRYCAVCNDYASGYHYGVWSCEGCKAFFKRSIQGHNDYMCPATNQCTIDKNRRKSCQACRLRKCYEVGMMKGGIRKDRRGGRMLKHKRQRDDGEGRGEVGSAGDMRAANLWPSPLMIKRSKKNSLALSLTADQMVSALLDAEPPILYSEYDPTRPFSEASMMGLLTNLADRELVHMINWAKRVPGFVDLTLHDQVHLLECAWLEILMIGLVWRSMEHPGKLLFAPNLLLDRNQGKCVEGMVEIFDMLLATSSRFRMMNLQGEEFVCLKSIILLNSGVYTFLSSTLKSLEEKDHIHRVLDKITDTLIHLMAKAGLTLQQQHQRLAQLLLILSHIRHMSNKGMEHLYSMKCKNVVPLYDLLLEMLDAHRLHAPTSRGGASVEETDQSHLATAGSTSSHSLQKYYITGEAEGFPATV
# Target: estrogen receptor (ER) (Homo sapiens, UniProt P03372)
# Experiment: Western blot for ER expression in T47D cells
# Type: cell-based
# Conditions: fulvestrant released from Silastic tubing
structure (smiles),measurement,value
C[C@]12CC[C@@H]3c4ccc(O)cc4C[C@@H](CCCCCCCCC[S+]([O-])CCCC(F)(F)C(F)(F)F)[C@H]3[C@@H]1CC[C@@H]2O (stereo partly shown) [fulvestrant],duration of down-regulation of ER expression,> 12 weeks
